This is an account of results in paper PMC2119351 (The Journal of Experimental Medicine, 1992).

By UniProt entry, the sequences of proteins in these tests, tags left out. Residues count along the entry.
UniProt P63099, 2-170: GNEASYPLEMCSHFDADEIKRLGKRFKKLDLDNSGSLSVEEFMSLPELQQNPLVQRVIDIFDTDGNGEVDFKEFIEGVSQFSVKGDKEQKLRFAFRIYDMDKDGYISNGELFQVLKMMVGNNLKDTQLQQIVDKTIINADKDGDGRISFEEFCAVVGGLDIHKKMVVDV

This test has as its target calcineurin (Bos taurus, UniProt P48452+P62942+P63099). The format is biochemical.

Each structure is given as a SMILES string.

Take `CC[C@@H]1/C=C(\C)C[C@H](C)C[C@H](OC)[C@H]2O[C@@](O)(C(=O)C(=O)N3CCCC[C@H]3C(=O)O[C@H](/C(C)=C/[C@@H]3CC[C@@H](O)[C@H](OC)C3)[C@H](C)[C@@H](O)CC1=O)[C@H](C)C[C@@H]2OC` [L-683,590]: the half-inhibitory concentration (IC50) amounted to 108 nM.
